The values below come from patent US8993717B2, “Gadd45beta targeting agents” (Imperial Innovations Limited, priority 2009, dated 2015).

For orientation: IC50 means the midpoint of a concentration-inhibition curve.

In the first assay the target is T1, Gadd45β/MKK7 interaction (Homo sapiens, UniProt O14733).
T1 construct: The GST-fused full-length kinase was coated for 16 h at 4° C., at a concentration of 42 nM; made in house
T1 sequence (O14733 1-419): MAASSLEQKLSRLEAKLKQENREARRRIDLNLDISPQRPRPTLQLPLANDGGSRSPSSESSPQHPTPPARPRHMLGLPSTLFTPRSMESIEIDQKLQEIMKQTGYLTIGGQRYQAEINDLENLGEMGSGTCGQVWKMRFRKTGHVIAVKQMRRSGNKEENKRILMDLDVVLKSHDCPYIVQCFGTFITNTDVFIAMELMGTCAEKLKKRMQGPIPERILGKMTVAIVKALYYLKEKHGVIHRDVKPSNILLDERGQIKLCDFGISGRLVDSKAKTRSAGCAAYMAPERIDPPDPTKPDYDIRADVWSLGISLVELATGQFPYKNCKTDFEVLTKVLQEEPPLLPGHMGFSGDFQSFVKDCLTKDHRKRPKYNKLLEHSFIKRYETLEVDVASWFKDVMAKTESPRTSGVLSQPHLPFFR
The experiment in a line: ELISA competition assay of biotin-hGadd45β binding to coated GST-MKK7. To be noted: Table V, FIG. 3C. Here is the method:
To evaluate the inhibitory properties of peptides, ELISA-based assays were performed. In these assays, a fusion protein of glutathione S-transferase (GST) and mitogen-activated protein kinase kinase 7 (MKK7) was coated onto wells of a 96-well plate, while biotinylated-hGadd45β was used in solution. hGadd45β was biotinylated using an EZ Link NHS-LC-biotin kit (Pierce, Rockford, Ill.), according to Tornatore et al. (Tornatore L., et al. (2008). J Mol Biol; 378:97-111).
Firstly, the association between Gadd45β and MKK7 was investigated by ELISA assays as also reported in Tornatore et al. (Tornatore L., et al. (2008). J Mol Biol; 378:97-111). The GST-fused full-length kinase was coated for 16 h at 4° C., at a concentration of 42 nM in buffer A (25 mM Tris pH 7.5, 150 mM NaCl, 1 mM DTT and 1 mM EDTA) into wells of a 96-well microliter plate. Some wells were filled with buffer alone and were used as blanks. After incubation for 16 h at 4° C., the solutions were removed and the wells were filled with 350 μL of a 1% (w/v) solution of NFDM (Non Fat Dry Milk) in PBS (phosphate buffered saline). The plate was incubated for 1 h at 37° C. in the dark. After washing with buffer T-PBS (PBS with 0.004% (v/v) Tween detergent), the wells were filled with 100 μL of biotinylated-hGadd45β at concentrations ranging from 8.4 nM to 168 nM. Each data point was performed in triplicate. Following incubation for 1 hr in the dark at 37° C. the solutions were removed and the wells were again washed with T-PBS. Then 100 μL of a 1:10,000 dilution of horseradish peroxidase-conjugated streptavidin dissolved in buffer was added to each well and the plate incubated for 1 hr at 37° C. in the dark. After removal of the enzyme solution and washing, 100 μL of the chromogenic substrate o-phenylendiamine (0.4 mg/mL in 50 mM sodium phosphate-citrate buffer, containing 0.4 mg/mL of urea in hydrogen peroxide) was added and the colour was allowed to develop in the dark for 5 min. The reaction was stopped by adding 50 μL of 2.5 M H2SO4. The absorbance at 490 nm was measured in all wells and the values were averaged after subtracting the corresponding blanks. Bound protein was then detected as described above. The molar concentration of biotinylated-hGadd45β at which the half-maximal ELISA signal is detected corresponds to the dissociation constant (KD) (Friguet B, Chaffotte A F, Djavadi-Ohaniance L, Goldberg M E. J Immunol Methods. 1985 Mar. 18; 77 (2):305-19). Binding competition assays were performed by coating GST-MKK7 at 42 nM as described, a concentration of biotinylated-hGadd45β of 21 nM (pre-saturation conditions 1:0.5 mol/mol ratio) and, in a first test, using competitors at 21 nM. The binding of biotinylated hGadd45β to GST-MKK7 was analyzed in the presence of increasing amounts of competitor peptide (concentrations ranging from 0.01 nM to 100 nM), and the values obtained with the competitor were expressed as the percentage of the binding detected in the absence of competitor. […] According to the convention adopted in the table “L-Xaa” and “D-Xaa” refer to the L and D forms of amino acid Xaa.
A simplified combinatorial peptide library (Marasco et al. 2008, Curr. Protein Pept. Sci. 9:447-67) was screened for antagonists of the Gadd45β/MKK7 interaction. This library contained a total of 12^4=20,736 different tetrapeptides formed by combinations of the following amino acid residues Gln (Q), Ser (S), Arg (R), Ala (A), Tyr (Y), Pro (P), Met (M), Cys (C), Phe (F), Leu (L), His (H), Asp (D), and was iteratively deconvoluted in four steps by ELISA competition assays using at each step coated MKK7 (42 nM), soluble-biotin-hGadd45β (21 nM) and each of the 12 sub-libraries (42 nM).
Turning to `CSCC[C@@H](NC(=O)[C@@H](Cc1ccc(O)cc1)NC(C)=O)C(=O)N[C@H](Cc1ccccc1)C(N)=O` [AC-Tyr-Met-Phe-NH2], the IC50 was above 10 nM.

Take `CC(=O)N[C@H](Cc1ccc(O)cc1)C(=O)N[C@H](CC(N)=O)C(=O)N[C@H](CCCNC(=N)N)C(=O)N[C@H](Cc1ccccc1)C(N)=O` [Ac-Tyr-Asn-Arg-Phe-NH2]: the IC50 stood at 10 nM.

On to `CC(=O)N[C@H](Cc1ccc(O)cc1)C(=O)N[C@H](CC(N)=O)C(=O)N[C@H](Cc1ccccc1)C(N)=O` [Ac-Tyr-Asn-Phe-NH2], for which the IC50 was 1.9 nM.

Regarding `CC(=O)N[C@H](Cc1ccc(O)cc1)C(=O)N[C@H](CCC(N)=O)C(=O)N[C@H](CCCNC(=N)N)C(=O)N[C@H](Cc1ccccc1)C(N)=O` [Ac-Tyr-Gln-Arg-Phe-NH2], the IC50 was determined as 5 nM.

As for `CC(=O)N[C@H](Cc1ccc(O)cc1)C(=O)N[C@H](CCC(N)=O)C(=O)N[C@H](Cc1ccccc1)C(N)=O` [Ac-Tyr-Gln-Phe-NH2], the IC50 is above 10 nM.

With `CC(=O)N[C@H](Cc1ccc(O)cc1)C(=O)N[C@H](CC(C)C)C(=O)N[C@H](CCCNC(=N)N)C(=O)N[C@H](Cc1ccccc1)C(N)=O` [Ac-Tyr-Leu-Arg-Phe-NH2], the IC50 is 5 nM.

On to `CC(=O)N[C@H](Cc1ccc(O)cc1)C(=O)N[C@H](CC(C)C)C(=O)N[C@H](Cc1ccccc1)C(N)=O` [Ac-Tyr-Leu-Phe-NH2], for which the IC50 turned out to be 1.8 nM.

For `CSCC[C@@H](NC(=O)[C@@H](Cc1ccc(O)cc1)NC(C)=O)C(=O)N[C@H](CCCNC(=N)N)C(=O)N[C@H](Cc1ccccc1)C(N)=O` [Ac-Tyr-Met-Arg-Phe-NH2], the IC50 is above 10 nM.

Consider `CC(=O)N[C@H](Cc1ccc(O)cc1)C(=O)N[C@H](Cc1ccc(O)cc1)C(=O)N[C@H](CCCNC(=N)N)C(=O)N[C@H](Cc1ccccc1)C(N)=O` [Compound 18, Ac-Tyr-Tyr-Arg-Phe-NH2], for which the IC50 is above 5 nM.

The same assay, now with this note: Table VI; compounds 0.01-100 nM.
For the compound `CC(=O)N[C@H](Cc1ccc(O)cc1)C(=O)N1CCC[C@@H]1C(=O)N[C@H](Cc1ccccc1)C(N)=O` [Compound B13, Ac-YPF-NH2], the IC50 was 0.645 nM.

Consider `CC(=O)N[C@H](Cc1ccc(O)cc1)C(=O)N[C@H](CCCNC(=N)N)C(=O)N[C@H](Cc1ccc(O)cc1)C(N)=O` [Compound O3, Ac-YRY-NH2], for which the IC50 was 0.758 nM.
